Literature values in PubChem BioAssay AID1811 (Shanghai Institute of Organic Chemistry, 2009).
pIC50, pKd, pKi: −log10 of the molar value.

Columns and labels:
Assay in all cases: PubChem AID 1811
[1] = target: 3-phosphoinositide dependent protein kinase 1; conditions: PDB complex binding affinities from literature; IC50 when reported
coagulation factor x = conditions: PDB complex binding affinities from literature; Ki when reported
[2] = target: cell division protein kinase 2; conditions: PDB complex binding affinities from literature; for pIC50: IC50 when reported
thymidylate kinase = conditions: PDB complex binding affinities from literature; Ki when reported
glutamate receptor 2 = conditions: PDB complex binding affinities from literature; Ki when reported
[3] = target: heat shock protein 90 alpha; conditions: PDB complex binding affinities from literature; IC50 when reported
aiia-like protein = conditions: PDB complex binding affinities from literature; Ki when reported
[4] = target: glutathione s-transferase; conditions: PDB complex binding affinities from literature; Kd when reported
chitinase b = conditions: PDB complex binding affinities from literature; Ki when reported
[5] = target: serine/threonine-protein kinase 6; conditions: PDB complex binding affinities from literature; IC50 when reported
dodecin = conditions: PDB complex binding affinities from literature; Kd when reported
hiv-1 protease = conditions: PDB complex binding affinities from literature; IC50 when reported
[6] = target: leucine-specific binding protein; conditions: PDB complex binding affinities from literature; Kd when reported
FK506 binding protein = conditions: PDB complex binding affinities from literature; Kd when reported
beta-glucosidase a = conditions: PDB complex binding affinities from literature; Kd when reported
[7] = target: 3-phosphoinositide dependent protein kinase-1; conditions: PDB complex binding affinities from literature; Ki when reported
acetylcholinesterase = conditions: PDB complex binding affinities from literature; for pIC50: IC50 when reported
[8] = target: glutathione s-transferase 28 kda; conditions: PDB complex binding affinities from literature; Kd when reported
collagenase 3 (mmp-13) = conditions: PDB complex binding affinities from literature; IC50 when reported
epsin = conditions: PDB complex binding affinities from literature; Kd when reported
1ZXV A = conditions: PDB complex binding affinities from literature; Ki when reported
1PWP A = conditions: PDB complex binding affinities from literature; Ki when reported
[9] = target: hypothetical protein ydce; conditions: PDB complex binding affinities from literature; Ki when reported
coagulation factor xa = conditions: PDB complex binding affinities from literature; Ki when reported
[10] = target: acetyl-coenzyme a carboxylase; conditions: PDB complex binding affinities from literature; Kd when reported
beta-lactamase = conditions: PDB complex binding affinities from literature; Ki when reported
trypsinogen = conditions: PDB complex binding affinities from literature; Kd when reported
ribonuclease a = conditions: PDB complex binding affinities from literature; Ki when reported
acetyl-coa carboxylase = conditions: PDB complex binding affinities from literature; Kd when reported
trypsin i = conditions: PDB complex binding affinities from literature; Kd when reported
[11] = target: purine nucleoside phosphorylase; conditions: PDB complex binding affinities from literature; Kd when reported
[12] = target: sialic acid binding protein hi0146; conditions: PDB complex binding affinities from literature; Kd when reported

Compound: Cn1cc(C2=C(c3cn(CCCN)c4ccccc34)C(=O)NC2=O)c2ccccc21
- pIC50 [1]: 6.00

Compound: CC(C)N1CCC(NC(=O)c2cc3ccccc3n2CC(=O)Nc2ccc(Cl)cc2)CC1
- pKi (coagulation factor x): 8.52

Compound: CN(C)C[C@@H](O)COc1ccc(Nc2ncc(Br)c(Nc3ccccc3)n2)cc1
- pIC50 [2]: 4.55

Compound: Cc1cn([C@H]2C[C@H](O)[C@@H](CO)O2)c(=O)[nH]c1=O
- pKi (thymidylate kinase): 4.57

Compound: CN1CCc2c(-c3ccc(S(=O)(=O)N(C)C)cc3)cc3c(c2C1)NC(=O)/C3=N/O[C@@H](CCO)C(=O)O
- pKi (glutamate receptor 2): 6.40

Compound: CS(=O)(=O)c1ccc(CN2CCN(c3cn[nH]c3-c3cc(Cl)c(O)cc3O)CC2)cc1
- pIC50 [3]: 6.13

Compound: N[C@H]1CCOC1=O
- pKi (aiia-like protein): 2.96

Compound: CC(=O)N[C@@H](CCCN=C(N)N)C(=O)N[C@H]1CCCCNC(=O)CNC(=O)[C@H](Cc2ccccc2)NC(=O)[C@H](CC(C)C)NC1=O
- pIC50 [2]: 4.72

Compound: N[C@@H](CCC(=O)N[C@@H](CS)C(=O)NCC(=O)O)C(=O)O
- pKd [4]: 5.52

Compound: O=C[C@H]1CCCN1
- pKi (chitinase b): 3.19

Compound: CO[C@@H](C(=O)N1Cc2[nH]nc(NC(=O)c3ccc(N4CCN(C)CC4)cc3)c2C1)c1ccccc1
- pIC50 [5]: 7.89

Compound: Cc1cc2nc3c(=O)[nH]c(=O)nc-3n(C[C@H](O)[C@H](O)[C@H](O)CO)c2cc1C
- pKd (dodecin): 7.45

Compound: O=C(N[C@H]1c2ccccc2C[C@H]1O)[C@H](Cc1ccccc1)CC(O)C[C@@H](Cc1ccccc1)C(=O)N[C@H]1c2ccccc2C[C@H]1O
- pIC50 (hiv-1 protease): 9.17

Compound: CC(C)C[C@H](N)C(=O)O
- pKd [6]: 6.40

Compound: CN(C)CCCn1cc(C2=C(c3c[nH]c4ccccc34)C(=O)NC2=O)c2ccccc21
- pIC50 [1]: 5.05

Compound: CC(=O)N[C@@H](CCCN=C(N)N)C(=O)N[C@@H](CCCN=C(N)N)C(=O)N[C@@H](CC(C)C)C(=O)N[C@@H](CC(N)=O)C(=O)N[C@@H](Cc1cccc(Cl)c1)C(N)=O
- pIC50 [2]: 5.25

Compound: O=S(=O)(Nc1ccc(O)c(-c2c(O)ccc3ccccc23)c1)c1cc(Cl)ccc1Cl
- pIC50 [3]: 6.15

Compound: Cc1cc2nc3[nH]c(=O)[nH]c(=O)c3nc2cc1C
- pKd (dodecin): 8.01

Compound: CO[C@H]1C[C@@H]2CC[C@@H](C)[C@@](O)(O2)C(=O)C(=O)N2CCCC[C@H]2C(=O)O[C@H]([C@H](C)C[C@@H]2CC[C@@H](O)[C@H](OC)C2)CC(=O)[C@H](C)/C=C(\C)[C@@H](O)[C@@H](OC)C(=O)[C@H](C)C[C@H](C)/C=C/C=C/C=C/1C
- pKd (FK506 binding protein): 9.70

Compound: O[C@H]1[C@H](O)[C@@H](O)CN2CC[C@H](O)[C@H]12
- pKd (beta-glucosidase a): 5.68

Compound: O=P(O)(O)OC1[C@H](O)[C@H](OP(=O)(O)O)C(OP(=O)(O)O)[C@H](OP(=O)(O)O)[C@H]1O (stereo partly specified)
- pKi [7]: 6.52

Compound: COc1ccc2c3c1O[C@H]1C[C@@H](O)C=C[C@@]31CC[N+](CCCCCCCCN1C(=O)c3ccccc3C1=O)=C2
- pIC50 (acetylcholinesterase): 8.40

Compound: CN1CCN(c2ccc(C(=O)Nc3n[nH]c4c3CN(C(=O)Cc3cccs3)C4)cc2)CC1
- pIC50 [5]: 7.19

Compound: Clc1cccc(Nc2nc(OCC3CCCCC3)c3[nH]cnc3n2)c1
- pIC50 [2]: 5.64

Compound: O=c1ccc2c([nH]1)CCC[C@@H]2NCCCCCCCCCCCCN[C@H]1CCCc2[nH]c(=O)ccc21
- pKi (acetylcholinesterase; Ki when reported): 8.35

Compound: N[C@H](CCC(=O)N[C@@H](CS)C(=O)NCC(=O)O)C(=O)O
- pKd [8]: 4.66

Compound: CCOCCC1(Oc2ccc(Oc3ccc(F)cc3)cc2)C(=O)NC(=O)NC1=O
- pIC50 (collagenase 3 (mmp-13)): 9.06

Compound: O=P(O)(O)O[C@@H]1[C@H](O)[C@H](O)[C@@H](OP(=O)(O)O)[C@H](OP(=O)(O)O)[C@H]1O
- pKd (epsin): 5.44

Compound: O=C(O)CCN1C(=O)/C(=C\c2ccc(-c3ccc(Cl)cc3)o2)SC1=S
- pKi (1ZXV A): 6.10

Compound: Cc1cc(N)c2cc(NC(=O)Nc3ccc4nc(C)cc(N)c4c3)ccc2n1
- pKi (1PWP A): 6.30

Compound: O=C(O)c1ccccc1
- pKi [9]: 2.48

Compound: c1ccc2c(NCCCCCNc3c4c(nc5ccccc35)CCCC4)c3c(nc2c1)CCCC3
- pIC50 (acetylcholinesterase): 7.55

Compound: CC(C)N1CCC(NC(=O)c2cc3ccccc3n2Cc2cc(-c3ccc(Cl)s3)on2)CC1
- pKi (coagulation factor xa): 8.52

Compound: CO[C@H]1CCCC[C@@H](c2ccccc2)OC(=O)[C@@H](C)[C@@]2(O)O[C@H]([C@@H](C)[C@H](O)[C@H]2OC)[C@@H](C)/C=C/[C@H]1OC
- pKd [10]: 8.41

Compound: Cc1nc(C)c(-c2ccnc(N)n2)s1
- pIC50 [2]: 5.19

Compound: O=C(Cc1cccs1)N[C@H]([Al])c1cccc(C(=O)O)c1
- pKi (beta-lactamase): 9.00

Compound: NCCCCc1ccccc1
- pKd (trypsinogen): 1.44

Compound: NS(=O)(=O)c1cccc(Nc2nc(OCC3CCCCC3)c3[nH]cnc3n2)c1
- pIC50 [2]: 6.68

Compound: O=c1ccn([C@H]2C[C@H](OP(=O)(O)O)[C@@H](CO)O2)c(=O)[nH]1
- pKi (ribonuclease a): 4.74

Compound: O=C(c1c2ccccc2cc2ccccc12)N1CCC(N2CCC[C@@H](C(=O)N3CCOCC3)C2)CC1
- pKd (acetyl-coa carboxylase): 5.14

Compound: Nc1n[nH]c(N)c1N=Nc1ccc(O)cc1
- pKi ([2]; Ki when reported): 4.88

Compound: NCc1ccccc1
- pKd (trypsin i): 3.84
- pKd (trypsinogen): 3.49

Compound: CC(C)C[C@H](NC(=O)[C@H](CCCN=C(N)N)NC(=O)[C@@H](N)CCCN=C(N)N)C(=O)N[C@@H](CC(N)=O)C(=O)N[C@@H](Cc1ccc(F)cc1)C(N)=O
- pIC50 [2]: 6.28

Compound: Nc1nc2c(ncn2[C@@H]2O[C@H](CO)[C@@H](O)[C@H]2O)c(=O)[nH]1
- pKd [11]: 4.10

Compound: CC(=O)N[C@H]1[C@H]([C@H](O)[C@H](O)CO)OC(C(=O)O)=C[C@@H]1O
- pKd [12]: 4.70
